Tests used:
[1] = tested on: AP1, P53, Nrf2, and NF-κB
NF-κB = conditions: regardless of metabolic activation (S9- and S9+), 24 h

## Cucurbitacin B
[1]
  Toxic (natural products exceeding Score 3, Venn diagram list Fig. 3c): Common
  sum of activity scores compared between metabolic activation and non-metabolic conditions: consistently active regardless of metabolic activation
Nrf2
  GFP expression, Nrf2 cell line: induced GFP expression
NF-κB
  GFP expression, NF-κB cell line: increased GFP expression

— PMC10881971, “Hepa-ToxMOA: a pathway-screening method for evaluating cellular stress and hepatic metabolic-dependent toxicity of natural products” (Scientific Reports, 2024)
